Drawing on PubChem BioAssay AID624168 (Sanford-Burnham Center for Chemical Genomics, 2012), this text covers activation for 56 compounds.

SMILES strings stand for the structures. The list shows a part of the results, in another mix than the full data. The source made the active and inactive calls.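 The calls were made as follows: active = activation of at least 8% versus controls, or a plate z-score of at least 8; inactive = the rest.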

A short description of the assay: compounds raising alpha-dystroglycan glycosylation – uHTS, Pro5-aDG cells, AlphaScreen, primary screen (AID 624168).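 Also: Pro5 are CHO cells carrying HIG-tagged alpha-DG that lacks glycosylation.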 Particulars: alpha-DG glycosylation AlphaScreen (IIH6), at 10 µM, hits give high values, 0% Pro5, 100% B10-LARGE cell signal. (In general: In Alpha technology, singlet oxygen from a donor bead excites a nearby acceptor bead.)
In the case of `Cc1nc2ccc3ccccc3c2s1.O=[N+]([O-])c1cc([N+](=O)[O-])c(O)c([N+](=O)[O-])c1`, the activation was inactive: -0.1%.

On to `O=[N+]([O-])c1cc([N+](=O)[O-])c(-c2cnn(-c3ccccc3)c2)c([N+](=O)[O-])c1`, for which the activation was inactive: 1%.

On to `CN(Cc1cccnc1)C(=O)COc1ccc(Cl)c(Cl)c1.O=[N+]([O-])c1cc([N+](=O)[O-])c(O)c([N+](=O)[O-])c1`, for which the activation was inactive: 0%.

Take `O=[N+]([O-])c1cc([N+](=O)[O-])c(-n2nnc3ccccc32)c([N+](=O)[O-])c1`: the activation was inactive: -0.2%.

Take `CCCOc1ccc(NP(C)(=O)Oc2ccc(Cl)cc2)cc1` (stereo unspecified): the activation is inactive: 0.4%.

Consider `CP(=O)(Nc1ccc(SC(F)(F)F)cc1)Oc1ccccc1` (stereo unspecified), for which the activation was inactive: 0.2%.

As for `COc1ccc(-c2ccccn2)cc1.O=[N+]([O-])c1cc([N+](=O)[O-])c(O)c([N+](=O)[O-])c1`, the activation was inactive: -0.3%.

Consider `COc1ccccc1OP(C)(=O)Nc1c(C)cccc1C` (stereo unspecified), for which the activation was inactive: 0.1%.

Turning to `CN1CCCCC1COC(=O)C1(O)c2ccccc2CCc2ccccc21` (stereo unspecified), the activation is inactive: 0.1%.

As to `CCOC(=O)C(CC)C1=NC(C)(C)Cc2ccccc21.O=[N+]([O-])c1cc([N+](=O)[O-])c(O)c([N+](=O)[O-])c1` (stereo unspecified), the activation is inactive: 0%.

For the compound `CC1=C2N=C(C=C3N=C(C(C)=C4[N-][C@@](C)([C@@H]5N=C1[C@](C)(CCC(=O)NC[C@@H](C)OP(=O)([O-])O[C@H]1[C@@H](O)[C@@H](n6cnc7cc(C)c(C)cc76)O[C@@H]1CO)[C@H]5CC(N)=O)[C@@](C)(CC(N)=O)[C@@H]4CCC(N)=O)[C@@](C)(CC(N)=O)[C@@H]3CCC(N)=O)C(C)(C)[C@@H]2CCC(N)=O.[C-]#N.[Co+3]`, the activation is inactive: 0.1%.

For the compound `O=[N+]([O-])c1cc([N+](=O)[O-])c(Nc2nnnn2CCO)c([N+](=O)[O-])c1`, the activation was inactive: 0.1%.

With `CC1=NCCc2c1[nH]c1ccccc21.O=[N+]([O-])c1cc([N+](=O)[O-])c(O)c([N+](=O)[O-])c1`, the activation was inactive: 0%.

Turning to `O=C(O)c1cccc(Nc2c([N+](=O)[O-])cc([N+](=O)[O-])cc2[N+](=O)[O-])c1`, the activation was inactive: -0.1%.

For `Cc1cc(C)cc(OP(C)(=O)Nc2ccccn2)c1` (stereo unspecified), the activation is inactive: 0.5%.

Regarding `CP(=O)(Nc1cccc(Br)c1)Oc1ccccc1` (stereo unspecified), the activation was inactive: 1%.

As to `Cc1ccc(C)c(NP(C)(=O)Oc2ccccc2)c1` (stereo unspecified), the activation was inactive: 0.3%.

As for `Cc1cc(C)cc(OP(C)(=O)Nc2ccc(C)cc2C)c1` (stereo unspecified), the activation was inactive: 0.2%.

Consider `CCOC(=O)c1ccc(NP(C)(=O)Oc2cc(C)cc(C)c2)cc1` (stereo unspecified), for which the activation was inactive: 0.3%.

For the compound `COc1ccccc1OP(C)(=O)Nc1cccc(Br)c1` (stereo unspecified), the activation is inactive: 0%.

Turning to `COc1ccccc1-c1ccccn1.O=[N+]([O-])c1cc([N+](=O)[O-])c(O)c([N+](=O)[O-])c1`, the activation is inactive: -0.3%.

As for `CCN(CC)CCCOC(=O)C(O)(c1ccccc1)c1ccccc1`, the activation is inactive: 0.1%.

For `COc1ccc(OP(C)(=O)Nc2cccc(F)c2)cc1` (stereo unspecified), the activation was inactive: 0.3%.

In the case of `COc1ccccc1OP(C)(=O)Nc1cc(Cl)ccc1C` (stereo unspecified), the activation is inactive: 0.1%.

With `Cc1cc(C)cc(OP(C)(N)=O)c1` (stereo unspecified), the activation was inactive: -0.1%.

As to `CCOC(=O)c1ccc(NP(C)(=O)Oc2ccccc2)cc1` (stereo unspecified), the activation was inactive: -0.1%.

Regarding `Cc1ccc(NP(C)(=O)Oc2ccccc2)c(C)c1` (stereo unspecified), the activation is inactive: 0%.

For the compound `COc1ccccc1OP(C)(=O)Nc1ccc(C)cc1` (stereo unspecified), the activation was inactive: -0.2%.

Take `Cc1cccc(C)c1OP(C)(N)=O` (stereo unspecified): the activation was inactive: 0.2%.

In the case of `CC(C)(C)c1ccc(OP(C)(=O)Nc2ccc(SC(F)(F)F)cc2)cc1` (stereo unspecified), the activation was inactive: 0.5%.

With `O=[N+]([O-])c1ccc2c(c1)C=Nc1ccccc1O2`, the activation was inactive: 0.1%.

`O=[N+]([O-])c1cc([N+](=O)[O-])c(Nc2cccnc2)c([N+](=O)[O-])c1`: the activation was inactive: 2.4%.

Take `COc1ccccc1OP(C)(=O)Nc1ccccc1` (stereo unspecified): the activation is inactive: -0.1%.

In the case of `CP(=O)(Nc1ccccc1Br)Oc1ccccc1` (stereo unspecified), the activation is inactive: -0.1%.

As to `CP(=S)(Nn1cnnc1)Oc1ccccc1` (stereo unspecified), the activation is inactive: -0.2%.

Consider `CP(=O)(Nc1ccccn1)Oc1ccc(Cl)cc1` (stereo unspecified), for which the activation was inactive: 0%.

On to `CCOP(C)(=S)SCC(=O)NC(C)C(=O)O` (stereo unspecified), for which the activation is inactive: -0.1%.

For the compound `CCOC(=O)c1ccc(NP(C)(=O)Oc2ccc(OC)cc2)cc1` (stereo unspecified), the activation is inactive: -0.1%.

Take `O=[N+]([O-])c1cc([N+](=O)[O-])c(O)c([N+](=O)[O-])c1.c1ccc(Oc2ccncc2)cc1`: the activation was inactive: 0%.

Regarding `Cc1cc(C)cc(OP(C)(=O)Nc2ccc(SC(F)(F)F)cc2)c1` (stereo unspecified), the activation is inactive: 0%.

Consider `CP(=O)(NC(=O)Nc1ccccc1)Oc1ccccc1` (stereo unspecified), for which the activation is inactive: -0.1%.

Take `CCc1ccc(OP(C)(=O)N2CCN(c3ccc([N+](=O)[O-])cc3)CC2)cc1` (stereo unspecified): the activation was inactive: 0.4%.

As for `CP(=O)(Oc1ccccc1)OC(c1ccccc1)C(F)(F)F` (stereo unspecified), the activation is inactive: 0.3%.

As to `Cc1cccc(C)c1OP(C)(=O)Nc1ccc(SC(F)(F)F)cc1` (stereo unspecified), the activation is inactive: 0.4%.

As to `Cc1ccc(Nc2c([N+](=O)[O-])cc([N+](=O)[O-])cc2[N+](=O)[O-])cc1`, the activation is inactive: 1.5%.

As to `CP(=O)(Nc1ccc(SC(F)(F)F)cc1)Oc1ccc(Cl)cc1` (stereo unspecified), the activation is inactive: 0%.

On to `CN(C)C(=O)c1c([N+](=O)[O-])cc([N+](=O)[O-])cc1[N+](=O)[O-]`, for which the activation is inactive: 4.1%.

Take `CP(=O)(Nc1ccc(Cl)cc1)Oc1ccc(F)cc1` (stereo unspecified): the activation was inactive: -0.1%.

For `COc1ccccc1OP(C)(=O)Nc1ccccc1Br` (stereo unspecified), the activation is inactive: 0%.

Consider `CC(C)(C)c1ccc(OP(C)(=O)O)cc1`, for which the activation was inactive: 0.1%.

Consider `CCc1ccc(OP(C)(=O)Nc2cccnc2)cc1` (stereo unspecified), for which the activation was inactive: 0%.

Regarding `CP(=O)(Oc1ccccc1)N1CCOC1=O` (stereo unspecified), the activation is inactive: 0.3%.

On to `O=C(OCCCN1CCCC1)C(O)(c1ccccc1)C1CCCCC1` (stereo unspecified), for which the activation was inactive: 0.1%.

As for `COc1ccccc1OP(C)(=O)Nc1c(C)n(C)n(-c2ccccc2)c1=O` (stereo unspecified), the activation was inactive: -0.1%.

With `COc1ccc(OP(C)(=O)Nc2ccc(Br)cc2)cc1` (stereo unspecified), the activation was inactive: -0.1%.

For the compound `CCN(CC)CC(O)COC(=O)C(O)(c1ccccc1)C1CCCCC1` (stereo unspecified), the activation was inactive: 0%.
